Series [1] relates to Akata, Huh7, Vero 76, MDCK. In words: Cell toxicity in the cell lines of the viral screen. In kind it is cell-based. The note with it: each cell line, top concentration tested.
The nature of series [2]: PK in rats, intravenous injection. The following applies: rat, in vivo.
A short description of series [3]: Preliminary pharmacokinetic study, single subcutaneous injection. In kind it is in vivo. The note with it: human, plasma, sc, patients, single 0.2 mg/kg subcutaneous injection, read-out: plasma concentration, average.
The next series concerns acute lethal septicemia. In words: Model of acute lethal septicemia (LPS). The format is in vivo. The note with it: 3 doses (4 μg each) at −2, 0, and 0.5 hours of LPS; cumulative 0.6 mg/kg.
A short description of series [4]: Phase I and Phase IIa clinical trials, safety. In kind it is in vivo, human. The following applies: Phase I and ongoing Phase IIa clinical trials.
Another series deals with mice, infarct size. Kind of series: Infarct size reduction in mice. The following applies: 0.15 mg/kg subcutaneous vs 5 mg/kg (100 μg) intraperitoneal.
In a further series the test system is mice, CAIA. In words: Acute mouse model of rheumatoid arthritis (CAIA). The following applies: single administration, 0.6 mg/kg, Day 3 after paw swelling had started.
Series [5] has as its system PBMCs collected from the arthritic mice. In words: Ex-vivo LPS exposure of PBMCs from treated arthritic mice. The note with it: mice treated daily, subcutaneous 0.6 mg/kg.
For another series, the system named is TSLP. In words: Planned co-culture of airway epithelial cells (ALI) with patient derived dendritic cells and PBMCs. The note with it: planned mechanistic assay.

Values after ≈ are worked out from the molar mass of the structure shown.

Consider `CCCC[C@H](NC(=O)[C@H](CC(C)C)NC(=O)[C@H](Cc1ccccc1)NC(=O)[C@@H](NC(=O)[C@H](Cc1ccccc1)NC(=O)[C@@H]1CCCN1C(=O)[C@H](CCCCN)NC(=O)[C@H](CC(N)=O)NC(=O)[C@H](Cc1ccccc1)NC(=O)[C@H](CCCCN)NC(=O)[C@@H](NC(C)=O)C(C)C)C(C)C)C(=O)N[C@H](C(=O)N[C@@H](CCC(=O)O)C(=O)N[C@@H](CCC(N)=O)C(=O)N[C@@H](CC(N)=O)C(=O)N[C@H](C(=O)N[C@@H](CCCCN)C(N)=O)[C@@H](C)O)[C@@H](C)CC` [VKFNKPFVFL[Nle]IEQNTK], for which, in series [1], the “Cell Toxicity” value was “*Cell Toxicity tested and found to be >150 μg/ml in each cell line (top cone, tested)”. For the same molecule, the AUC(0-t) in series [2] amounted to 900 ng·h/mL. In [2], this molecule gave a half-life of 1.9 h. The Cmax in series [2] (read-out: Cmax (C0 μg/mL)) amounted to 2500 ng/mL. Moreover, in series [3] (90 minutes following injection), the level at 1.5 h was determined as 2.4 ng/mL. Also, in series [3] (six hours after injection), the level at 6 h came out at 0.9 ng/mL. Moreover, in the series on acute lethal septicemia, the “mortality over a 72-hour period” value was “significantly decreased mortality over a 72-hour period”. In addition, the safety and tolerability entry in series [4] was “safe and well tolerated”. Also, the “EC50” value in the series with Epstein Bar Virus was 38.7 µg/mL (≈ 18.4 µM); in the series with Dengue virus 2, 47 µg/mL (≈ 22.3 µM); in the series on Enterovirus-71, 47 µg/mL (≈ 22.3 µM); in the series on Measles, 47 µg/mL (≈ 22.3 µM). Further, the infarct size reduction result in the series on mice, infarct size is “same effective infarct size reduction”. Also, in the series with mice, CAIA, the paw swelling entry is reported as “capable of reducing paw swelling”. For the same molecule, the “cytokines IL-6 and TNF-α after ex-vivo LPS” value in [5] is given as “significantly lower vs. vehicle”. The TSLP mediated effects result with TSLP is “will reduce TSLP mediated effects”.

For the origin of these results see US11779630B2, “Peptides and methods of using the same” (SERPIN PHARMA, LLC, priority 2020, dated 2023).
